The record followed here is patent EP4843988A1, “PYRIDOTHIOPHENE-2-CARBOXYLIC ACID DERIVATIVE, PREPARATION METHOD THEREFOR AND USE THEREOF” (dated 2026).

The chains behind the UniProt entries cited, without tags or fusion partners.
UniProt P11712, whole entry: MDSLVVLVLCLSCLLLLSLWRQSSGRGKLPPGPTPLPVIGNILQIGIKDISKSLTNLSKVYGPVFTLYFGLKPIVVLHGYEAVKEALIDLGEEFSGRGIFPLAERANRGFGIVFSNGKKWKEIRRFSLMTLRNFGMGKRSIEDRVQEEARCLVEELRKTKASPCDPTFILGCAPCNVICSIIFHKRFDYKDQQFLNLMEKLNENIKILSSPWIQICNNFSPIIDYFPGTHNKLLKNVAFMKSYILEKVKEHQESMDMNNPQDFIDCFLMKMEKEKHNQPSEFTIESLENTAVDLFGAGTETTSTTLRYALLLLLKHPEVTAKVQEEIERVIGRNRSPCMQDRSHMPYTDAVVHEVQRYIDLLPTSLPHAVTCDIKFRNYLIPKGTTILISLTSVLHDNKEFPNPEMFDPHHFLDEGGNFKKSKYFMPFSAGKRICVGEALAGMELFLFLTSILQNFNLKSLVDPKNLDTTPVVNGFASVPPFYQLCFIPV
UniProt P05177, whole entry: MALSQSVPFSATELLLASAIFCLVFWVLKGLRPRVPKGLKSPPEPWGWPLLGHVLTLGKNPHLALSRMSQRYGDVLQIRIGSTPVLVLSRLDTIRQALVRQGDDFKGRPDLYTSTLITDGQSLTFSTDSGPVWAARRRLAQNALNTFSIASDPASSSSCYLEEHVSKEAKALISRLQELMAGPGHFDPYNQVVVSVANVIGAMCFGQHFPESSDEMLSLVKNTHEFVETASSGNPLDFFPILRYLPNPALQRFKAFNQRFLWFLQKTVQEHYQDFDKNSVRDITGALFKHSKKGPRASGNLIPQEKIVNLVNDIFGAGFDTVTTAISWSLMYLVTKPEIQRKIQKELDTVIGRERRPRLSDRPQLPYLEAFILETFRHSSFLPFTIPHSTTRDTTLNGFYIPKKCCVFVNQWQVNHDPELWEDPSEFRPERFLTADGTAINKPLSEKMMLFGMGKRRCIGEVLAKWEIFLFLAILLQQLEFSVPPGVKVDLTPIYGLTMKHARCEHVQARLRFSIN
UniProt P10635, whole entry: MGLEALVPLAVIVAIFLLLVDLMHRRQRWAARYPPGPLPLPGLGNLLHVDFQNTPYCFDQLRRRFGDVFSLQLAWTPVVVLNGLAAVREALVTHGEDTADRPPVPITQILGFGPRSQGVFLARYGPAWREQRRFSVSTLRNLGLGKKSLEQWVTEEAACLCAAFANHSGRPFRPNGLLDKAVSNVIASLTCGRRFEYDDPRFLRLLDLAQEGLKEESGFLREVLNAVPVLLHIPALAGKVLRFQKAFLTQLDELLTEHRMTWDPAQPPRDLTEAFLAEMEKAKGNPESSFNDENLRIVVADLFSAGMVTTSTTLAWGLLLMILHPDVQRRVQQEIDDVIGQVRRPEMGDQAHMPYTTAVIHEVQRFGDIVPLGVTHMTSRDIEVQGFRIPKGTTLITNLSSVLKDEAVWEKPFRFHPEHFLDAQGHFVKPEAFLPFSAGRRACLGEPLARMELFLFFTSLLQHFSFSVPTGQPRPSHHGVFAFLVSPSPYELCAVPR
UniProt P33261, whole entry: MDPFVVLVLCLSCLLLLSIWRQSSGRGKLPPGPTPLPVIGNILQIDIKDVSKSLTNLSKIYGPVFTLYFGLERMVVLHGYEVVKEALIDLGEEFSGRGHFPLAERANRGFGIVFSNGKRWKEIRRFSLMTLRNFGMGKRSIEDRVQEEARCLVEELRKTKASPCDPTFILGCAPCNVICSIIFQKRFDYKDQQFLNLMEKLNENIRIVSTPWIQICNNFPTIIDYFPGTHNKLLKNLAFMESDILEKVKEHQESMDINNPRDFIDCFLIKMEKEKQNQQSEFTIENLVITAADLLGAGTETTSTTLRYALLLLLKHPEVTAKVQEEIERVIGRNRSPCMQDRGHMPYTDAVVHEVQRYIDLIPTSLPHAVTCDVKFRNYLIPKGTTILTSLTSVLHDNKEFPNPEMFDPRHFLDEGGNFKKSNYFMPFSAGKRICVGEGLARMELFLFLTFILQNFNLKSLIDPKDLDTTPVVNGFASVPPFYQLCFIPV

What is called pIC50 is the IC50 on a negative log10 scale, so that one unit is a factor of ten. Broadly, the Cmax is the maximum level reached in the sampled fluid or tissue.

SMILES strings stand for the structures. pIC50: −log10 of the molar value. Some results are limits rather than exact numbers.

Series [1] addresses BCKDK protein in HEK293 cells (Homo sapiens, UniProt O14874). The series is described as follows: Inhibitory effect of compounds on BCKDK protein in HEK293 cells (Phospho-BCKDH-E1α (Ser293) signal). Particulars: compound treatment 4 h at 37 °C, Phospho-BCKDH-E1α (Ser293) detection.
Another series has as its target CYP2C9 (Homo sapiens, UniProt P11712). The series can be described thus: Inhibitory activity against human CYP450 in human liver microsomes: CYP2C9. Particulars: read-out: Inhibitory activity IC50 against CYP2C9; human liver microsomes 0.2 mg/mL, substrate Diclofenac sodium 10 µM. In general terms: Liver microsomes are a subcellular fraction often used to study metabolism.

The next series concerns the target CYP1A2 (Homo sapiens, UniProt P05177). The series can be described thus: Inhibitory activity against human CYP450 in human liver microsomes: CYP1A2. Particulars: read-out: Inhibitory activity IC50 against CYP1A2; human liver microsomes 0.2 mg/mL, substrate Phenacetin 30 µM.
Series [2] can be described thus: In vivo pharmacokinetic experiment in rats. Particulars: oral (intragastric) administration, 20 mpk, mean of two animals.
Another series addresses CYP2D6 (Homo sapiens, UniProt P10635). The series is described as follows: Inhibitory activity against human CYP450 in human liver microsomes: CYP2D6. Particulars: read-out: Inhibitory activity IC50 against CYP2D6; human liver microsomes 0.2 mg/mL, substrate Bufuralol hydrochloride 5 µM.
A further series has as its target CYP2C19 (Homo sapiens, UniProt P33261). The series is described as follows: Inhibitory activity against human CYP450 in human liver microsomes: CYP2C19. Particulars: read-out: Inhibitory activity IC50 against CYP2C19; human liver microsomes 0.2 mg/mL, substrate S-mephenytoin 35 µM.
Series [3] in a line: Stability test of compounds in rat hepatocytes. Particulars: 1 µM test compound, 0.5 × 10^6 cells/mL, 0-120 min.
The next series concerns CYP3A. The series can be described thus: Inhibitory activity against human CYP450 in human liver microsomes: CYP3A. Particulars: read-out: Inhibitory activity IC50 against CYP3A; human liver microsomes 0.2 mg/mL, substrate Midazolam 3 µM.
A short description of series [4]: In vivo pharmacokinetic experiment in dogs. Particulars: dogs (beagles), oral (intragastric) administration, 3 mpk, mean of two animals.
Series [5] in a line: Stability test of compounds in human hepatocytes. Particulars: 1 µM test compound, 0.5 × 10^6 cells/mL, 0-120 min.

In series [1], `COc1c(F)cc(Cl)c(-c2c(C(=O)O)sc3cc(Cl)cnc23)c1F` (single isomer, unassigned) had a pIC50 of 6.02.
Same read-out and setting: then `O=C(O)c1sc2cc(F)cnc2c1-c1cc(F)c(F)c(OC(F)F)c1F`, with 5.23; and `CCc1c(F)c(F)cc(-c2c(C(=O)O)sc3cc(Cl)cnc23)c1F`, with 5.87.
Still for that read-out and setting: then `Cc1c(F)c(F)cc(-c2c(C(=O)O)sc3cc(Cl)cnc23)c1F`, with 5.33.
`COc1c(F)cc(Cl)c(-c2c(C(=O)O)sc3cc(F)cnc23)c1F`: the pIC50 on CYP2C9 was less than 4.52; on CYP1A2, less than 4.52; in series [1], 5.81; at CYP2D6 it was less than 4.52; on CYP2C19, less than 4.52; in the series with CYP3A it was less than 4.52. Also, the “AUClast” value in series [2] turned out to be 1297.444 µg·h/mL; in [4] it was 102.182 µg·h/mL. For the same compound, the “Cmax” value in [2] is 77900 ng/mL; in series [4] it was 18250 ng/mL. Further, in series [3], the “Metabolic clearance rate CLint in hepatocytes, Rat” value is recorded as 20.18 µL/min/10^6 cells. In addition, the “T1/2” value in series [4] came to 5.77 h. In series [5], the “Metabolic clearance rate CLint in hepatocytes, Human” value is given as 2.38 µL/min/10^6 cells.
`COc1c(F)c(F)cc(-c2c(C(=O)O)sc3cc(F)ccc23)c1F`: the pIC50 at CYP2C9 was 5.96; at CYP1A2, less than 4.52; at CYP2D6 it was less than 4.52; at CYP2C19, less than 4.52; with CYP3A, less than 4.52.
In turn, `O=C(O)c1sc2cc(Cl)cnc2c1-c1cc(F)c(F)c(OC(F)F)c1F` showed a pIC50 in series [1] of 5.45.
For the compound `COc1c(F)c(F)cc(-c2c(C(=O)O)sc3cc(F)cnc23)c1F`, the pIC50 in series [1] was 5.02.
Still for that read-out and setting: the same measure for `[2H]C([2H])([2H])Oc1c(F)cc(Cl)c(-c2c(C(=O)O)sc3cc(Cl)cnc23)c1F`: 6.05.
With `CCc1c(F)c(F)cc(-c2c(C(=O)O)sc3cc(F)cnc23)c1F`, in series [1], the pIC50 is 5.55.
Still for that read-out and setting: the same measure for `COc1c(F)c(F)cc(-c2c(C(=O)O)sc3cc(Cl)cnc23)c1F`: 5.25; for `Cc1c(F)c(-c2c(C(=O)O)sc3cc(Cl)cnc23)cc(F)c1Cl`: 5.38.
Still for that read-out and setting: the same measure for `O=C(O)c1sc2cc(F)cnc2c1-c1c(Cl)cc(F)c(OC(F)F)c1F`: 5.36.
On the same count and under the same terms, then `O=C(O)c1sc2cc(Cl)cnc2c1-c1c(Cl)cc(F)c(OC(F)F)c1F`, with 6.25; and `CSc1c(F)c(F)cc(-c2c(C(=O)O)sc3cc(F)cnc23)c1F`, with 5.58.
